Values quoted from earlier work as cited in patent publication US20220111042A1, “MANF as a Regulator of Immune System Function” (University of Massachusetts, priority 2014, published 2022).

Test system: MANF expression
Settings: CTLL-2 cells, up to 24 hours following IL-2 stimulation; cited from earlier work

In the case of “interleukin-2: cytokine that regulates T cell proliferation and differentiation”, the MANF expression levels is given as “become elevated”.
